Test results: publication PMC11249646, “Small-Molecule Disruptors of the Interaction between Calcium- and Integrin-Binding Protein 1 and Integrin αIIbβ3 as Novel Antiplatelet Agents” (ACS Pharmacology & Translational Science, 2024)

Target: T1, GST-CIB1 : F-αIIb peptide (Homo sapiens, UniProt Q99828)
T1 construct: made in house; host or cells: BL-21 plus RIL cells (E. coli)
T1 sequence (Q99828 1-191): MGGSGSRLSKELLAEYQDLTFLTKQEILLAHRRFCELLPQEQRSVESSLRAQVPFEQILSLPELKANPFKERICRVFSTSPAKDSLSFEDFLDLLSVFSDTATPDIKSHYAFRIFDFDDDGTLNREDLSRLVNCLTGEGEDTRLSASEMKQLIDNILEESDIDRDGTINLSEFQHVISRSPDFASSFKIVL
Assay: FP assay in the presence of glutathione (GSH), thiol reactivity
Assay type: binding

O=C1C(I)=CC(=C(c2cc(I)c([O-])c(I)c2)c2ccccc2C(=O)[O-])C=C1I.[Na+].[Na+] [NCGC00161636-02]
GSH/CIB1 IC50 ratio: 1.8
